The text below walks through data of publication PMC6748613 (mAbs, 2019).

In this experiment the target is vascular endothelial growth factor (VEGF)-A, isoform 165 (Homo sapiens, UniProt P15692-4). The experiment can be described thus: SPR. On the technique in general: Surface plasmon resonance follows binding to a sensor surface in real time, without labels.

B1: bH1-Fab variant W^H33-F^H98-M^H99-R^L30b (Fab, V domains shown)
VH: EVQLVESGGGLVQPGGSLRLSCAASGFNIKDTWIHWVRQAPGKGLEWVARIYPTNGYTRYADSVKGRFTISADTSKNTAYLQMNSLRAEDTAVYYCSRWGGFMFYAMDYWGQGTLVTVSS
VL: DIQMTQSPSSLSASVGDRVTITCRASQDIPRRISGYVAWYQQKPGKAPKLLIYWGSYLYSGVPSRFSGSGSGTDFTLTISSLQPEDFATYYCQQHYTTPPTFGQGTKVEIK
For B1, the “ΔΔG_bind against the parental Fab” value is -2.42 kcal/mol.
